Experimental data from patent US20220073475A1, “5-MEMBERED HETEROARYL COMPOUNDS CONTAINING A HYDROXAMATE MOIETY AND THEIR USE” (UNIVERSITE DE LILLE, priority 2019, published 2022).

Legend:
TLM1 cells [1] = test: X-ray radiation in combination with compound, propidium iodide dead cells, ratio of corrected AUC; assay type: cell-based, canine; settings: TLM1, compound at 30 μM
Experimental: (§1) Canine melanoma TLM-1 cells are maintained in DMEM medium supplemented with GlutaMAX™, 10% fetal bovine serum, 1× Hepes and 1% penicillin-streptomycin.
TLM-1 cells were seeded with the BioTek MicroFlo™ dispenser in μClear® black 384-well plates (Greiner) at the density of 20,000 cells/mL in 50 μL. Compounds for pre-treatment were added 2 h after the seeding, using an Echo 550 (Labcyte). The next day, cells were washed five times with 40 μL media without phenol red with a plate washer (Hydrospeed, Tecan). Cells were irradiated with 4, 6, 8, 12, 16, 20 and 24 Gray (Gy). […] This step was repeated every 72 h after radiation. Plates were incubated at 37° C. and 5% CO2. […] 4 images per well were collected. Images were analyzed with Columbus software (Perkin Elmer). In this system we used predefined building blocks to measure different parameters on nuclei detected. We applied a threshold based on propidium iodide intensity in nuclei of controls to select and count dead cells. By dividing the number of dead cells by the number of nuclei detected we obtained the percentage of dead cells. AUC were determined in one experiment with triplicate incubates on percentage of cells labelled with propidium iodide and were corrected by the percentage of cells labelled with propidium iodide at 0 Gy. […]

MCF7 cells = test: CFZ potency increase, ratio of CC50 of CFZ alone / with compound; assay type: cell-based, human; settings: MCF7, compound at 15 μM
Experimental: Human epithelial MCF7 cells (mammary gland adenocarcinoma) are maintained in EMEM medium supplemented with GlutaMAX™, 10% fetal bovine serum, 0.01 mg insulin and 1% penicillin-streptomycin.
(§2) We developed a cell-based, high content assay allowing the rapid detection and quantification of apoptotic cells. Caspase-3/7 activity was detected in real-time using the NucView™ 488 Caspase-3 substrate (Biotium), where the caspase-3/7 substrate peptide sequence DEVD is attached to a nucleic acid dye. The NucView™ 488 reagent crosses the plasma membrane to enter the cytoplasm, where the dye is unable to bind to DNA and remains non-fluorescent. Once the substrate has been cleaved by activated caspase-3/7 in apoptotic cells, the high-affinity DNA dye is released and migrates to the cell nucleus to stain the nucleus with a bright green fluorescence. All cell nuclei were also labeled with Hoechst 33342 (Ozyme).
(§3) For HeLa and MCF7 cells, briefly, cells were seeded in 384-microtiter well plate (1500 HeLa cells or 5000 MCF7 cells in 40 μL full medium per well) and let to attach overnight. […] Four fields per well were read with the 20× objective in a confocal mode. […]
(§4) For all cells, Columbus software (Perkin) was used for image quantification and analysis. First, Hoechst 33342 staining was used for an automated detection of nuclei, in which the mean fluorescence intensity for NucView™ 488 was quantified. […]

OPM2 cells [2] = test: as above; assay type: cell-based, human
Source text: (§5) Human multiple myeloma cells OPM2 (ACC 50, DSMZ) are maintained at 0.3-0.7 10^6 cells/mL in RPMI1640 medium supplemented with GlutaMAX™, 10% fetal bovine serum and 1% penicillin-streptomycin.
as §2, with “All cell nuclei were also labeled with Hoechst 33342 (Ozyme).” left out
(§6) For OPM2, briefly, nanoliters of compound and cytotoxic agent in DMSO stock solutions were first transferred and combined in 384-microtiter well plate using an Echo555 liquid handler (Labcyte). The exact volume of each solution to be transferred was calculated to achieve subsequently the target concentration in the 70 μL volume incubate. […] Four fields per well were read with the 20× objective in a confocal mode. […]
(§7) For all cells, Columbus software (Perkin) was used for image quantification and analysis. […]

HeLa cells [3] = test: as above; assay type: cell-based, human; settings: compound at 7.5 μM
Source text: (§8) Human HeLa cells (uterine cervical carcinoma) are maintained in DMEM medium supplemented with GlutaMAX™, 10% fetal bovine serum and 1% penicillin-streptomycin.
as §2, §3, §4

OPM2 cells [4] = test: Panobinostat (PAN) potency increase, ratio of AUC of cytotoxicity; assay type: cell-based, human; settings: OPM2, agent PAN, compound 3 at 15 μM
Source text: as §5
as §2, with “All cell nuclei were also labeled with Hoechst 33342 (Ozyme).” left out
as §6, §7

TLM1 cells [5] = test: UV-C radiation in combination with compound, ratio of % propidium iodide labelled cells; assay type: cell-based, canine; settings: TLM1, 15 μM compound 24 h before and just after UV-C, 48 h after UV-C at 400 J/m^2, mean of three experiments
Experimental: as §1
TLM-1 cells were seeded in μClear® black 384-well plates (Greiner) at the density of 60,000 cells/mL in 50 Compounds were added 24 h after the seeding, using an acoustic nanodispensor Echo 550 (Labcyte). The next day, cells were washed five times with 40 μL phosphate buffer saline (PBS) with a plate washer (Hydrospeed, Tecan). 10 μL of PBS was left per well. Plate was submitted to UV-C(Stratalinker® UV Crosslinker, Artisan Technologies Group) with different doses (J/m^2). After UV-C radiation, compounds were added using an acoustic nanodispensor Echo 550 (Labcyte). We complete to 50 μL of media per well. Plates were incubated at 37° C. and 5% CO2. Some hours before image acquisition, propidium iodide (1 Thermofisher) for labeling dead cells and Hoechst 33342 (80 ng/mL, Thermofisher) for nuclei staining were added using an acoustic nanodispensor Echo 550 (Labcyte). […] Images were analyzed with Columbus software (Perkin Elmer). In this system we used predefined building blocks to measure different parameters on nuclei detected. […] By dividing the number of dead cells by the number of nuclei detected we obtained the percentage of dead cells. […]

HeLa cells [6] = test: Nelfinavir (NEL) potency increase, ratio of AUC of cytotoxicity; assay type: cell-based, human; settings: agent NEL, compound 3 at 15 μM
Source text: as §8, §2, §3, §4

SMILES: O=C(C[C@@H](Cc1ccc2ccccc2c1)n1cc(CNC(=O)c2ccc(F)cc2)nn1)NO [Compound 3, 4-Fluoro-N-[1-(R-2-hydroxycarbamoyl-1-naphthalen-2-ylmethyl-ethyl)-1H-[1,2,3]-triazol-4-ylmethyl]-benzamide]
- Activity: ratio of corrected AUC of X-ray radiation in combination with compound / corrected AUC of X-ray radiation alone (TLM1 cells [1]): 1.8
- Activity: ratio (CC50 of CFZ alone)/(CC50 of CFZ in combination with compound of the invention) (MCF7 cells): 2.1
- Activity: ratio (CC50 of CFZ alone)/(CC50 of CFZ in combination with compound of the invention) (OPM2 cells [2]; OPM2, compound at 7.5 μM (Table 5)): 1.9
- Activity: ratio (CC50 of CFZ alone)/(CC50 of CFZ in combination with compound of the invention) (OPM2 cells [2]; OPM2, compound at 7.5 μM (Table 6)): 1.9
- Activity: ratio (CC50 of CFZ alone)/(CC50 of CFZ in combination with compound of the invention) (HeLa cells [3]): 2.8
- Activity: ratio of AUC of cytotoxity of PAN with and without 15 μM (3) (OPM2 cells [4]): 2.1
- Activity: ratio of percentage of cells labelling with propidium iodide, compound vs vehicle (TLM1 cells [5]): 1.3
- Activity: ratio of AUC of cytotoxity of NEL with and without 15 μM (3) (HeLa cells [6]): 1.5
